## Ab-14 light chain CDR variants: yeast mating affinities

From the AlphaSeq antibody data of Engelhart et al. 2022 (doi:10.1038/s41597-022-01779-4), copy in the FLAb collection.

Binding partner: SARS-CoV-2 spike HR2 peptide, sequence PDVDLGDISGINAS.

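The parent was found by panning a naive human phage display library on the peptide. Library AAYL50 holds single substitutions and randomly drawn double and triple substitutions in the CDRs. The assay is AlphaSeq: two haploid yeast populations carry antibody and antigen on their surface. The frequency of each diploid, read from paired DNA barcodes, reflects how well the two displayed proteins bind. A regression on co-assayed BCL2-family reference pairs converts the normalised counts of each replicate to an apparent Kd. There are three technical replicates.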

Ab-14 is the parent antibody, in scFv form: VH, then a 15-residue (Gly4Ser)3 linker, then VL. The heavy chain is unchanged in all variants.
VH: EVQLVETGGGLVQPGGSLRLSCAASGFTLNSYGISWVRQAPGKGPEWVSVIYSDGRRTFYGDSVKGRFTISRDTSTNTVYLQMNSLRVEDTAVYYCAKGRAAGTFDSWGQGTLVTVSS
VL: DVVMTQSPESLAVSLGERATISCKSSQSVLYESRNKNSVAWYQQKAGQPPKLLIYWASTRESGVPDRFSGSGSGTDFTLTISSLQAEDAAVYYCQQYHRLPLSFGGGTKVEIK

Changes read parent residue, position, new residue, counted from the first residue of the VL shown.
This list gathers variants with a substitution at H98 (VL, numbered from residue 1).
The Kd shown is the geometric mean over detected replicates; a lower Kd is a better binder.
A pair that was not seen in any replicate is written "nd"; this usually means weak binding, but a binder can also be missed.
Parent in this assay: reference entry 4.4 nM, copy in this library 48 nM.
As a blank, each scFv also met three strains without target: over library AAYL50, 18% of these pairings were detected, typically at 15 µM and seldom below 970 nM.

Variant E32W N37D H98G gave 30 nM (3 of 3 replicates). For A40R E61G H98F, the assay gave nd (0 of 3 replicates). Variant E61H H98R R99H showed nd (0 of 3 replicates). For L30F H98P P101H, the assay gave 2.9 nM (3 of 3 replicates). With S25M S33K H98F the result was 43 nM (3 of 3 replicates). Variant R60P H98I S103G showed nd (0 of 3 replicates). For H98S R99V, the assay gave 120 nM (3 of 3 replicates).

Variant R60M H98K L100N showed 550 µM (1 of 3 replicates). For Q27T H98L P101V, the assay gave 2.5 µM (3 of 3 replicates). Variant S58H H98E P101H gave 100 nM (3 of 3 replicates). Variant H98L L102S showed 5.2 nM (3 of 3 replicates). With N35P Q96Y H98V the result was 1.4 µM (3 of 3 replicates). Variant S58V H98C L100T gave nd (0 of 3 replicates). With L30I W56A H98Y the result was 1.1 nM (3 of 3 replicates).

With L30H S38F H98D the result was 3.6 µM (3 of 3 replicates). With S25W S62C H98K the result was 110 nM (3 of 3 replicates). For V39E A40S H98S, the assay gave nd (0 of 3 replicates). Variant T59N H98E P101H showed 3.8 µM (1 of 3 replicates). For K36Y T59S H98P, the assay gave 1.2 µM (2 of 3 replicates). For S33R S62N H98N, the assay gave 890 nM (3 of 3 replicates). With N35E V39P H98R the result was 160 µM (2 of 3 replicates).

With V29D H98I L100V the result was nd (0 of 3 replicates). Variant Y31W T59V H98L gave 25 nM (3 of 3 replicates). Variant Q27H R60E H98N gave nd (0 of 3 replicates). For A40D S62L H98Y, the assay gave nd (0 of 3 replicates). Variant S25R N37F H98W showed 820 nM (3 of 3 replicates). With Q27V L30N H98S the result was nd (0 of 3 replicates). For N37W H98C L100A, the assay gave 59 µM (3 of 3 replicates).

With S38C A57D H98V the result was 53 nM (3 of 3 replicates). For E32S E61S H98D, the assay gave 56 nM (3 of 3 replicates). For S26F H98V, the assay gave 37 nM (3 of 3 replicates). Variant N37D H98K S103E gave 7.6 nM (3 of 3 replicates). With H98Q L100S the result was 100 µM (2 of 3 replicates). Variant N35S A40K H98R showed nd (0 of 3 replicates). Variant S28K Q96M H98F gave 12 nM (3 of 3 replicates).

Variant W56D S58P H98A gave 37 µM (2 of 3 replicates). With S33E Q95R H98L the result was nd (0 of 3 replicates). With Y97K H98F P101F the result was 6.3 nM (3 of 3 replicates). Variant A40K S58V H98G gave 73 µM (2 of 3 replicates). With A40R R60G H98C the result was nd (0 of 3 replicates). Variant S33D H98I L102M showed 6.5 nM (3 of 3 replicates). Variant S38R H98D showed nd (0 of 3 replicates).

Variant S33A H98I S103N gave 570 nM (1 of 3 replicates). For W56M H98Q, the assay gave 2.5 nM (3 of 3 replicates). Variant K24C Q95I H98W showed nd (0 of 3 replicates). Variant R34C S62R H98K showed 16 nM (3 of 3 replicates). Variant H98Y P101C gave nd (0 of 3 replicates). Variant Q27A W56P H98S gave nd (0 of 3 replicates). Variant E32I N35Q H98C showed 25 µM (1 of 3 replicates).

With V39N Q95M H98R the result was 3.2 µM (1 of 3 replicates).

For reference, 3 entries of the list once more:

For L30F H98P P101H, the assay gave 2.9 nM (3 of 3 replicates).
For Y97K H98F P101F, the assay gave 6.3 nM (3 of 3 replicates).
For A40D S62L H98Y, the assay gave nd (0 of 3 replicates).